Results published in patent publication US6770652B2, “Multiple acting anti-angiogenic and cytotoxic compounds and methods for using the same” (Duquesne University of the Holy Ghost, priority 2001, dated 2004).
Where two headings read alike, the source gives them in different places.

Amino acid sequences for entries named in this document (tags omitted). Residues count along the entry.
UniProt P09619, 33-1106: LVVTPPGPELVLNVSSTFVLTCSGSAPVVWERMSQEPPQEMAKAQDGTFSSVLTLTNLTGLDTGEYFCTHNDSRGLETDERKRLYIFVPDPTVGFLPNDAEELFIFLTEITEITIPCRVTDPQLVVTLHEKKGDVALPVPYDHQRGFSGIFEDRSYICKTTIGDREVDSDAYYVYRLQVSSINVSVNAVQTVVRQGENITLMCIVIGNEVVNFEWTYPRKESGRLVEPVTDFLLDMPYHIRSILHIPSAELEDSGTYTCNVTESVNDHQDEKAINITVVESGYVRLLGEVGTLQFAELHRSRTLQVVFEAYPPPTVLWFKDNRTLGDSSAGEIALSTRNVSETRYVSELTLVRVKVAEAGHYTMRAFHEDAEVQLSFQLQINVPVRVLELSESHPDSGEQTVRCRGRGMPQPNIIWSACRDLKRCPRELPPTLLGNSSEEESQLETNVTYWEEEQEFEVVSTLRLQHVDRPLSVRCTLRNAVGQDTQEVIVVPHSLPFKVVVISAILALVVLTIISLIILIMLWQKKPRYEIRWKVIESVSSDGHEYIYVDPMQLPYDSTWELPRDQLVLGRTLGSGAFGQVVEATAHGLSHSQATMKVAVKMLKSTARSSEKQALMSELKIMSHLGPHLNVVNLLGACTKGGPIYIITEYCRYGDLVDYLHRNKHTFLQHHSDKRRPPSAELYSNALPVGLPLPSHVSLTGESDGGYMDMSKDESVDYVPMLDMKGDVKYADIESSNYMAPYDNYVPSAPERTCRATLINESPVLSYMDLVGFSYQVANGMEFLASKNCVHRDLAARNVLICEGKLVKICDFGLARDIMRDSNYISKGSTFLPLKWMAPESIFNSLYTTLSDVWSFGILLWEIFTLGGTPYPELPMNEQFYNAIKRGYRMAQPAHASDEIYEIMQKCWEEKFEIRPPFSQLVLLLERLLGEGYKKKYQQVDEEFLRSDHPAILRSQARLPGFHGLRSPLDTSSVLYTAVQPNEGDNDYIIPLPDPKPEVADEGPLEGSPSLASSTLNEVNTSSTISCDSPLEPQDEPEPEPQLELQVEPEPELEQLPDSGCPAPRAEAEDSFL
UniProt P17948, 27-1338, species assumed: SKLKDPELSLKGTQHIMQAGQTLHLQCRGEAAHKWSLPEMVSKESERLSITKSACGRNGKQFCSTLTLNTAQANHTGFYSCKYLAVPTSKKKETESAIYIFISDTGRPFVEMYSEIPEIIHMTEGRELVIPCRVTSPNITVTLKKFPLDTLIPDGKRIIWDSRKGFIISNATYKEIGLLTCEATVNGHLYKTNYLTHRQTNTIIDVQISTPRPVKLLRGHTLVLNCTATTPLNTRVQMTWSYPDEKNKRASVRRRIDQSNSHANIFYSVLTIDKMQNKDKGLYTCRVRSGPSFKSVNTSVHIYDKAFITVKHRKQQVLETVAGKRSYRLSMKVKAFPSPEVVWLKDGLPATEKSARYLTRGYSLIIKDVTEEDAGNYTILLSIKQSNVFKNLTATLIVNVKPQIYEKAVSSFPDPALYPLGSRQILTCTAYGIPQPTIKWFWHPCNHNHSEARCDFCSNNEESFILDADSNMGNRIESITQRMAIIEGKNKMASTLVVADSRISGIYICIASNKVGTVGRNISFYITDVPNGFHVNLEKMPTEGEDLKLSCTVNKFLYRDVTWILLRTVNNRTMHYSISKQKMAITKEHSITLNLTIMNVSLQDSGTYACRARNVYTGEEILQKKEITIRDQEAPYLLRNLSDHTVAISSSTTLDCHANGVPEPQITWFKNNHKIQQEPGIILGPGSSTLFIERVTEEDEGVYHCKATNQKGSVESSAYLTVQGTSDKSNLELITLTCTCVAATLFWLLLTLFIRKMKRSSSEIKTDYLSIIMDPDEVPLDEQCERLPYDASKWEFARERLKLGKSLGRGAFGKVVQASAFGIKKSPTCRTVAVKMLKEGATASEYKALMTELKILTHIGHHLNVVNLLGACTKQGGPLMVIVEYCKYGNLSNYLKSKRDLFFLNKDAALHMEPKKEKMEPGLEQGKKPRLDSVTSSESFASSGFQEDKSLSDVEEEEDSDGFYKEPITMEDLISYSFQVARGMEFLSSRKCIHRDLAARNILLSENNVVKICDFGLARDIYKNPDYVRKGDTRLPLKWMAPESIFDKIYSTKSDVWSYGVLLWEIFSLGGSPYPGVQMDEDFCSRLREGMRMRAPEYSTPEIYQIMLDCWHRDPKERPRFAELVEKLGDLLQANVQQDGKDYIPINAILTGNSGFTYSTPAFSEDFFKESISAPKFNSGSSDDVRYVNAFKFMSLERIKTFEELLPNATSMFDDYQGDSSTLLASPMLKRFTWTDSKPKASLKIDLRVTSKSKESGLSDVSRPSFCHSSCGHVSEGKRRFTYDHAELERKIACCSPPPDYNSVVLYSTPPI
UniProt P35968, 20-1356: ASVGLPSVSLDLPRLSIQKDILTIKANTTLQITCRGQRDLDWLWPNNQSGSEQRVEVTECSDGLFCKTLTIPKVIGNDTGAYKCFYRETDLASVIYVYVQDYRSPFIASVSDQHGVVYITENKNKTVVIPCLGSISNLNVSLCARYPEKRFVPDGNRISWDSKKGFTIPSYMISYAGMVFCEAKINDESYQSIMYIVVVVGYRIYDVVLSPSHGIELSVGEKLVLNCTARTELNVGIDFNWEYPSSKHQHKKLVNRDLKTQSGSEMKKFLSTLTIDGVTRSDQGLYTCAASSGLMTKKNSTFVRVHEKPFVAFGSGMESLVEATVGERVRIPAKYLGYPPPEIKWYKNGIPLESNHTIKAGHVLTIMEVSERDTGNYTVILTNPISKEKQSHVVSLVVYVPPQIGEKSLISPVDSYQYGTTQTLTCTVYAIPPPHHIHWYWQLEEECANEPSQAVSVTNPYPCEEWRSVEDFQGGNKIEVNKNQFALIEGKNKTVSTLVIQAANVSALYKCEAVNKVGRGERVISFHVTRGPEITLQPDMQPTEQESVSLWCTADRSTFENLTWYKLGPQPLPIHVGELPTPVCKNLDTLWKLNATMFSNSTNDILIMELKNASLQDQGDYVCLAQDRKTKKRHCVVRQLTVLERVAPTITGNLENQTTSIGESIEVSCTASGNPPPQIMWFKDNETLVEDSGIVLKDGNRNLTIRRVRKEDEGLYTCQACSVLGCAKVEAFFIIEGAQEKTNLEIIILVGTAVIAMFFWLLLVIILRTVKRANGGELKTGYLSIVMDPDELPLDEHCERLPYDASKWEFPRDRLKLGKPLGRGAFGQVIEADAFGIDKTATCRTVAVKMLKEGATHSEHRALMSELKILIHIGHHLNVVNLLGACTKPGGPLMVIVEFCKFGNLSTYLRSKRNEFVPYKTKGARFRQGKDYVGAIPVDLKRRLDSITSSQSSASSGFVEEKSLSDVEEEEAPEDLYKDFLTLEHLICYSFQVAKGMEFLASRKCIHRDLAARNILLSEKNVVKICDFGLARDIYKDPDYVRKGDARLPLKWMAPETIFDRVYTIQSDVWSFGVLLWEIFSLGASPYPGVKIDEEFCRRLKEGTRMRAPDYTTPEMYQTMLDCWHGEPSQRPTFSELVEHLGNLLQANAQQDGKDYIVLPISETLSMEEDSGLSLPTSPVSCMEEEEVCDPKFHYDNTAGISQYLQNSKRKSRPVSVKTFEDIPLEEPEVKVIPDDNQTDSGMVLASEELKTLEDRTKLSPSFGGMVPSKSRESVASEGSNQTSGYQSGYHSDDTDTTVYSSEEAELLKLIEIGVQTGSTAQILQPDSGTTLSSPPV

Tests used:
PDGFR = PDGFR (Homo sapiens, UniProt P09619); test: PDGFR kinase inhibition; assay type: cell-based; conditions: Table 4; read-out: PDGFR kinase Inhibition, apparent IC50
Flt-1 = Flt-1 (Homo sapiens, UniProt P17948); test: Flt-1 kinase inhibition; assay type: cell-based
Flk-1 = Flk-1 (Homo sapiens, UniProt P35968); test: Phospho-Flk1 phosphotyrosine ELISA (cytoblot) on whole U251 glioblastoma cells; Flk1 kinase inhibition
[1] = read-out: Flk-1 kinase Inhibition, apparent IC50, Table 4, U251 cells overexpress Flk1

| Compound | IC50 (PDGFR) [µM] | IC50 (Flt-1) [µM] | IC50 (Flk-1) [µM] | IC50 (Flk-1; read-out: FIK1 Kinase Inhibition IC50, Table 2) [µM] | IC50 (Flk-1; [1]) [µM] |
| --- | --- | --- | --- | --- | --- |
| Cc1cc2ncc(-c3ccccc3)nc2cc1C [AG1295, reference compound] | 6.2 | – | – | – | – |
| Nc1nc(Nc2cccc(Br)c2)c2cc(Cc3ccccc3Cl)[nH]c2n1 [YJ/AG 145] | – | 26.8 | 5.6 | 5.6 | – |
| Nc1nc(Nc2cccc(Br)c2)c2cc(Cc3ccc4ccccc4c3)[nH]c2n1 [YJ/AG 146] | – | 15.2 | – | – | – |
| Nc1nc(Nc2cccc(Br)c2)c2cc(Cc3ccc(Cl)c(Cl)c3)[nH]c2n1 [YJ/AG 148] | – | > 50 | > 50 | – | > 50 |
| Nc1nc(Nc2cccc(Br)c2)c2cc(Cc3ccc(-c4ccccc4)cc3)[nH]c2n1 [YJ/AG 154] | – | – | 6 | – | 6 |
| Nc1nc(Nc2cccc(Br)c2)c2cc(Cc3ccccc3)[nH]c2n1 [YJ/AG 156] | – | > 50 | > 50 | – | – |
| Nc1nc(Nc2cccc(Br)c2)c2cc(Cc3cccc4ccccc34)[nH]c2n1 [YJ/AG 158] | – | – | 5.1 | – | 5.1 |
| Nc1nc(Nc2cccc(Br)c2)c2cc(Cc3ccc(Cl)cc3Cl)[nH]c2n1 [YJ/AG 176] | 17 | > 50 | 28.1 | – | 28.1 |
| COc1cc(Cc2cc3c(Nc4cccc(Br)c4)nc(N)nc3[nH]2)cc(OC)c1OC [YJ/AG 177] | 14.7 | > 50 | 9.4 | – | 9.4 |
| COc1ccc(OC)c(Cc2cc3c(Nc4cccc(Br)c4)nc(N)nc3[nH]2)c1 [YJ/AG 178] | 8.9 | 31.1 | – | – | – |
